Structures are written as SMILES.

From BindingDB's records for doi:10.1016/j.ejmech.2017.05.048 (University of Auckland, 2017) come the findings set out here.

This assay in a line: Inhibition of perforin (unknown origin)-mediated 51Cr-labelled human Jurkat cell lysis preincubated with protein for 30 mins followed by cell addition measured after 4 hrs by gamma counting method.

The molecule `COc1ccc(S(=O)(=O)Nc2cncc(-c3ccc(-c4ccc5c(c4)CN(C)C5=O)s3)c2)cc1OC` returned a half-inhibitory concentration (IC50) of 13.8 µM.

The term IC50 denotes the concentration at which inhibition is half-maximal.
